{"sequences": {"note": "Amino acid sequences for entries named in this document (tags omitted). A change or cut given only in a name is not applied to a line headed by its entry.", "UniProt P18031": "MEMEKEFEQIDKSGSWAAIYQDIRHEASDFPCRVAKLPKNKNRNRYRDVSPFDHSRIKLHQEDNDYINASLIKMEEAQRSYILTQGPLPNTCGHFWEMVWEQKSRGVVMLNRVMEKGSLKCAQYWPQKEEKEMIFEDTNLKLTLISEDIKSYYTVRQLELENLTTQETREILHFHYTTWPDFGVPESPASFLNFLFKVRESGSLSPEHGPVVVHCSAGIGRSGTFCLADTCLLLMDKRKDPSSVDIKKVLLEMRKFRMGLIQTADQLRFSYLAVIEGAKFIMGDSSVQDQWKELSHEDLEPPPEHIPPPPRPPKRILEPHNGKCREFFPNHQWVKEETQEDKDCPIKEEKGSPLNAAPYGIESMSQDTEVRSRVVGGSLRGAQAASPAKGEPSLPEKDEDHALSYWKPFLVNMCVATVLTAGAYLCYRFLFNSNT"}, "source": "patent US6110963A", "about": "“Aryl-oxo-acetic acids useful in the treatment of insulin resistance and hyperglycemia” (American Home Products Corporation, priority 1999, dated 2000)", "target": "Human recombinant PTP1B (hPTP1B) (Homo sapiens, UniProt P18031)", "experiment": "Inhibition of tri-phosphorylated insulin receptor dodecaphosphopeptide dephosphorylation by hPTP1B", "format": "biochemical", "details": "malachite green phosphate detection"}
{"substance": "Ammonium molybdate tetrahydrate", "values": [{"measurement": "IC50", "result": 8.7, "unit": "µM"}]}
